Only a part is listed here, and it is no random draw. Activity calls are given as the source filed them.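 How the source made its calls: active means activation above a cutoff set at the run's mean compound activation plus 3 SD (cut at about 39% in these data); inactive means the rest.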
Biological target: Trace amine-associated receptor 1 (Homo sapiens) (UniProt Q96RJ0)
Assay: human TAAR1 agonists, retest of hits, confirmation, Fluo-8 calcium fluorescence, CHO RD-HGA16 cells (AID 651783);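 further: promiscuous G-alpha-16 overexpression reroutes TAAR1 signalling from cAMP to calcium; peak fluorescence divided by basal pre-compound fluorescence per well; 0% = DMSO wells and 100% = phenethylamine at EC100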
Conditions: CHO RD-HGA16 TAAR1, Fluo-8 calcium fluorescence; at 3 µM; hits give high values; scaled: DMSO 0%, maximal phenethylamine 100%

Amino acid sequences for entries named in this document (tags omitted).
UniProt Q96RJ0, whole entry: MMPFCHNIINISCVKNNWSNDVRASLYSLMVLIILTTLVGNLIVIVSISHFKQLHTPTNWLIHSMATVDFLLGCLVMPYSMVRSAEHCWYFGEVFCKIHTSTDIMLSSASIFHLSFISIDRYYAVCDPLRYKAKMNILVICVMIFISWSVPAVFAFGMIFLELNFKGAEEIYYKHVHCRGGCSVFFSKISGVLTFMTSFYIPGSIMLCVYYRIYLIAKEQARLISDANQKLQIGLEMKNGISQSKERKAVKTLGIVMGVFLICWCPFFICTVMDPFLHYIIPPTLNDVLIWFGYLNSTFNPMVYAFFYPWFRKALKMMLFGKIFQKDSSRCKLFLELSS

SMILES	activation
CP(=O)(OC12CC3CC(CC(C3)C1)C2)OC12CC3CC(CC(C3)C1)C2	inactive: 28.4%
